Data published in PMC2890073 (Immunogenetics, 2010).
Entries after “also recorded” stand apart in the source; their conditions may differ.

Tested on: Mamu-B*08301
Type: binding, Chinese rhesus macaque (Macaca mulatta)

In the case of KSINKVYGR [Peptide 3035.0857], the “direct binding of radiolabeled ligand to purified Mamu-B*08301” value is reported as “significant binding; also recorded: did bind”.
